Columns and labels:
TFK-1 cell line = assay: Cell TitreGlo cell viability, TFK-1 cholangiocarcinoma cells; type: cell-based, human
EGI-1 cell line = assay: Cell TitreGlo cell viability, EGI-1 cholangiocarcinoma cells; conditions: IC50 in H69 normal cells / IC50 in EGI-1; panobinostat + secondary drug at IC20
CC-SW-1 cell line = assay: Cell TitreGlo cell viability, CC-SW-1 cholangiocarcinoma cells; conditions: IC50 in H69 normal cells / IC50 in CC-SW-1; panobinostat + secondary drug at IC20
HuCC-T1 cell line = assay: Cell TitreGlo cell viability, HuCC-T1 cholangiocarcinoma cells; conditions: IC50 in H69 normal cells / IC50 in HuCCT-1; panobinostat + secondary drug at IC20

Compound	IC50 (TFK-1 cell line; Homo sapiens, 48 h)	Therapeutic index Combination (TFK-1 cell line; IC50 in H69 normal cells / IC50 in TFK-1, panobinostat + secondary drug at IC20)	Therapeutic index Combination (EGI-1 cell line)	Therapeutic index Combination (CC-SW-1 cell line)	Therapeutic index Combination (HuCC-T1 cell line)
CCNC(=O)C[C@@H]1N=C(c2ccc(Cl)cc2)c2cc(OC)ccc2-n2c(C)nnc21 [Molibresib, 2-[(4S)-6-(4-chlorophenyl)-8-methoxy-1-methyl-4H-[1,2,4]triazolo[4,3-a][1,4]benzodiazepin-4-yl]-N-ethylacetamide]	181 nM				
CC(=O)Nc1cccc(-n2c(=O)n(C3CC3)c(=O)c3c(Nc4ccc(I)cc4F)n(C)c(=O)c(C)c32)c1 [Trametinib]		2.2	2.2	10.3	1.9

— patent publication US20220409582A1
